Measurements: patent US10087225B2, “Formulation of MK2 inhibitor peptides” (MOERAE MATRIX, INC., priority 2015, dated 2018)

Chains of the proteins cited; added tags and fusions are not shown. Lines headed by an entry give the natural chain unless they say otherwise; changes in a name come on top. Residues count along the entry.
UniProt P11362, 22-822 V561M: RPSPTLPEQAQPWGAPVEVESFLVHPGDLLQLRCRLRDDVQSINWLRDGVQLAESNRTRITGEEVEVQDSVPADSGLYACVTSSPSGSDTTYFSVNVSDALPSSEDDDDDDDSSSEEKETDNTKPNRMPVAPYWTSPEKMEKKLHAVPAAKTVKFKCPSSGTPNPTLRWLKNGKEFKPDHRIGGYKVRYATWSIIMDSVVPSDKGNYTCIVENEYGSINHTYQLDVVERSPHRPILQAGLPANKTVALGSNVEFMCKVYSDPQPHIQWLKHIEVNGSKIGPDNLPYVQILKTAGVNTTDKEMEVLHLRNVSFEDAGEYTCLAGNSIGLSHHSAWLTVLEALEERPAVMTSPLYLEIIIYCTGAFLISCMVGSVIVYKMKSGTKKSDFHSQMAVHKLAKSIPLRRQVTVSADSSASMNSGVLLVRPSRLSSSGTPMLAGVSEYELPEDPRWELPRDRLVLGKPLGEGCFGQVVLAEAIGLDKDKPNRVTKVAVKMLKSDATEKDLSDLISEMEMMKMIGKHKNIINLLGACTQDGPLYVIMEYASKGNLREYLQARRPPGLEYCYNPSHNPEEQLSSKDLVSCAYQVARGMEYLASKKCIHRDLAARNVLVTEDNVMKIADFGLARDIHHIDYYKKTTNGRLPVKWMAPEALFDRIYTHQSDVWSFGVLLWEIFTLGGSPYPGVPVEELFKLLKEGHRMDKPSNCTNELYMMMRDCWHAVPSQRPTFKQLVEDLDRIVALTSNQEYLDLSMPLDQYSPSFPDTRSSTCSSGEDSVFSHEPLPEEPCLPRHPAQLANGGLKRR
UniProt P45983, 1-384 isoform P45983-2: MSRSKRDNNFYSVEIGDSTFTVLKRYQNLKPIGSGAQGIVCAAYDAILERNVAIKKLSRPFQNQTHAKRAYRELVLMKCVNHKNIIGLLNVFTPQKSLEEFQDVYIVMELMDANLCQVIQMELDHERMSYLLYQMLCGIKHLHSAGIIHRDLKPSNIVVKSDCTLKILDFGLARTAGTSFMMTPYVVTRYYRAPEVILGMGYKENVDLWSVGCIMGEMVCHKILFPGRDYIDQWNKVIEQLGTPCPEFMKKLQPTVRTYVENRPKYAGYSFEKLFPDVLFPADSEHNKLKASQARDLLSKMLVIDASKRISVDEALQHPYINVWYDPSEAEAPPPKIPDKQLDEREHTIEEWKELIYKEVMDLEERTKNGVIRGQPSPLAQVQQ
UniProt Q9HCP0: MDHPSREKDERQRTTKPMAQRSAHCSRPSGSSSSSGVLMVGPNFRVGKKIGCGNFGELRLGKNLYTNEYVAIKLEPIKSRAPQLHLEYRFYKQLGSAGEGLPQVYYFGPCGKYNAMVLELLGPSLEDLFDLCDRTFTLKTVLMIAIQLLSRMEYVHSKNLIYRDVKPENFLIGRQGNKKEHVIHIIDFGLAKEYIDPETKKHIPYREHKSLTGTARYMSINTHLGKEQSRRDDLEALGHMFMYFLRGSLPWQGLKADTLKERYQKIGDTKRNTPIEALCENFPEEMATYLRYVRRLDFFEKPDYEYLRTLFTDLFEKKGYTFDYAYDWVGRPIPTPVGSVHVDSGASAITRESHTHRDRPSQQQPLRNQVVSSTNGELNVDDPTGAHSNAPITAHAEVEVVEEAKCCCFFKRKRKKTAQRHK
UniProt P78368: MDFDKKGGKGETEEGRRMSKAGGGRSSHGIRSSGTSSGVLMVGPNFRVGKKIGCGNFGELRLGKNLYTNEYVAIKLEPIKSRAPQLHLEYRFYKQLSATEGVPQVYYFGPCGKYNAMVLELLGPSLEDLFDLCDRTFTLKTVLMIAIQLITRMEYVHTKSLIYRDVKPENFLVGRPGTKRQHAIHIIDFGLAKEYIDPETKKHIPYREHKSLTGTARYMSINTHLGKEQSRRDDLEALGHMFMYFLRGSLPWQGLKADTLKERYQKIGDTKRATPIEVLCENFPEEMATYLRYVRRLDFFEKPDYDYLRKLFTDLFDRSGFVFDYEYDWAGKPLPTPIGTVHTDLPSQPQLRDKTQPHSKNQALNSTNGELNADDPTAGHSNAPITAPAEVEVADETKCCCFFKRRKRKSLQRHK
UniProt Q9NQU5: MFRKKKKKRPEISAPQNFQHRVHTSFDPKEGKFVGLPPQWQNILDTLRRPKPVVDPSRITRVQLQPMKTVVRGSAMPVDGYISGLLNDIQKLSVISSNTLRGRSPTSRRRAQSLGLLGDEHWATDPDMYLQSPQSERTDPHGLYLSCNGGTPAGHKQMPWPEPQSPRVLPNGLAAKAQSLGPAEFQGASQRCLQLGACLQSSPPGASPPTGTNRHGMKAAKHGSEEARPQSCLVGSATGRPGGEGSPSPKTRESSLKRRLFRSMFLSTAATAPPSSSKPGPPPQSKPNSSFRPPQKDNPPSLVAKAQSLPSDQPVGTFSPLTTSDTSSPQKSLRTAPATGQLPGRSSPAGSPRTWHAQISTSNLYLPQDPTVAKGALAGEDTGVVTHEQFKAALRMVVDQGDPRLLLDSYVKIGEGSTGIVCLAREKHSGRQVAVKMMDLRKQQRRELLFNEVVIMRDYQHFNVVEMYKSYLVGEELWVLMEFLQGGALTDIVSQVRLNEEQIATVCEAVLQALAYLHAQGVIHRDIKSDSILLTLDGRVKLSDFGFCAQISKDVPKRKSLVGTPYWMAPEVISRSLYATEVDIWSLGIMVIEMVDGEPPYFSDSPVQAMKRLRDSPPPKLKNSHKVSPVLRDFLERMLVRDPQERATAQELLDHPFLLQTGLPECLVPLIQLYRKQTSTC
UniProt Q9Y6M4: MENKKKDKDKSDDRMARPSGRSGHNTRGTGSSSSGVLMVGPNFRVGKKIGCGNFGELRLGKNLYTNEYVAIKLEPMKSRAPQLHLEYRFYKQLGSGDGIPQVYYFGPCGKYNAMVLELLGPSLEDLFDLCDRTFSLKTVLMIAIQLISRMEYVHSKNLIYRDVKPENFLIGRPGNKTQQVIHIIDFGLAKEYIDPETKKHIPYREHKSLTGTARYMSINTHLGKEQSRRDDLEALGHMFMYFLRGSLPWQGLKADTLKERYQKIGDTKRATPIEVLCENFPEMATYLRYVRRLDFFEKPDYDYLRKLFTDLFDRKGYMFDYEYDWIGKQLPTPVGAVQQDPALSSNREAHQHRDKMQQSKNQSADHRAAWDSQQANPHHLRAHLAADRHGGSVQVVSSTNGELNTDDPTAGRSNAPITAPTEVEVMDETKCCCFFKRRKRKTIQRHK

Legend:
Test in all cases: Kinase Profiling Assay
Format in all cases: biochemical
Conditions in all cases: 100 μM
MKK7β(h) = target: T1, MKK7β(h) (Homo sapiens, UniProt O14733)
T1 sequence (O14733 1-419): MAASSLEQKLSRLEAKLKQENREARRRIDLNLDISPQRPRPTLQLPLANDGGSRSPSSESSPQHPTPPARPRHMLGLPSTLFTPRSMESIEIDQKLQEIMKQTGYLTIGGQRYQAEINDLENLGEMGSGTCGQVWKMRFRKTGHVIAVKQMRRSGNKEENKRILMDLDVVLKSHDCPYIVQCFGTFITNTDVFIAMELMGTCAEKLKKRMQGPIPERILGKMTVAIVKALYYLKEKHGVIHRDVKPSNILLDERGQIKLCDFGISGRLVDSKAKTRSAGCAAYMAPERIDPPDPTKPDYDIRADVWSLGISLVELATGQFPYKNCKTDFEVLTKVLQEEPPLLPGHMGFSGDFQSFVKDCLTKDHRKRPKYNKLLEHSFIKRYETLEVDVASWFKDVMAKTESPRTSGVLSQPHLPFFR

FGFR2(N549H)(h) = FGFR2(N549H)(h) (Homo sapiens, UniProt P21802, N549H)
IGF-1R(h) = IGF-1R(h) (Homo sapiens, UniProt P08069)
FGFR1(V561M)(h) = FGFR1(V561M)(h) (Homo sapiens, UniProt P11362, V561M)
JNK1α1(h) = JNK1α1(h) (Homo sapiens, UniProt P45983)
CK1γ1(h) = CK1γ1(h) (Homo sapiens, UniProt Q9HCP0)
CK2α2(h) = CK2α2(h) (Homo sapiens, UniProt P19784)
CK1γ2(h) = CK1γ2(h) (Homo sapiens, UniProt P78368)
Fgr(h) = Fgr(h) (Homo sapiens, UniProt P09769)
GRK5(h) = GRK5(h) (Homo sapiens, UniProt P34947)
Plk1(h) = Plk1(h) (Homo sapiens, UniProt P53350)
PAK6(h) = PAK6(h) (Homo sapiens, UniProt Q9NQU5)
CK1γ3(h) = CK1γ3(h) (Homo sapiens, UniProt Q9Y6M4)

**Q.** How did the “% activity” value (MKK7β(h)) turn out when “HRRIKAWLKKIKALARQLGVAA (Mammalian) [MMI-0500]” was run?
**A.** 102%

**Q.** What about the “% activity” value (FGFR2(N549H)(h)) of the same sequence?
**A.** 105%

**Q.** And the “% activity” value (IGF-1R(h))?
**A.** 117%

**Q.** What about the “% activity” value (FGFR1(V561M)(h)) of the same sequence?
**A.** 113%

**Q.** And the “% activity” value (JNK1α1(h))?
**A.** 109%

**Q.** What about the “% activity” value (CK1γ1(h)) of the same sequence?
**A.** 109%

**Q.** What about the “% activity” value (CK2α2(h)) of the same sequence?
**A.** 103%

**Q.** What about the “% activity” value (CK1γ2(h)) of the same sequence?
**A.** 119%

**Q.** And the “% activity” value (Fgr(h))?
**A.** 109%

**Q.** And the “% activity” value (GRK5(h))?
**A.** 116%

**Q.** And the “% activity” value (Plk1(h))?
**A.** 104%

**Q.** And the “% activity” value (PAK6(h))?
**A.** 107%

**Q.** And the “% activity” value (CK1γ3(h))?
**A.** 114%
